Experiments:
[1] = biological target: recombinant purified human EHMT2 913-1193 (Homo sapiens, UniProt Q96KQ7); test: EHMT2 enzyme assay on histone peptide substrate (3H-SAM Flashplate); conditions: read-out: EHMT2 PEP (IC50 μM)
Protocol: Recombinant purified human EHMT2 913-1193 (55 μM) synthesized by Viva was used for all experiments. Biotinylated histone peptides were synthesized by Biopeptide and HPLC-purified to >95% purity. Streptavidin Flashplates and seals were purchased from PerkinElmer and 384 Well V-bottom Polypropylene Plates were from Greiner. ^3H-labeled S-adenosylmethionine (3H-SAM) was obtained from American Radiolabeled Chemicals with a specific activity of 80 Ci/mmol. Unlabeled SAM and S-adenosylhomocysteine (SAH) were obtained from American Radiolabeled Chemicals and Sigma-Aldrich respectively. Flashplates were washed in a Biotek ELx-405 with 0.1% Tween. 384-well Flashplates and 96-well filter binding plates were read on a TopCount microplate reader (PerkinElmer). Compound serial dilutions were performed on a Freedom EVO (Tecan) and spotted into assay plates using a Thermo Scientific Matrix PlateMate (Thermo Scientific). Reagent cocktails were added by Multidrop Combi (Thermo Scientific).
General Procedure for EHMT2 Enzyme Assay on Histone Peptide Substrate.
10-point curves of test compounds were made on a Freedom EVO (Tecan) using serial 3-fold dilutions in DMSO, beginning at 2.5 mM (final top concentration of compound was 50 μM and the DMSO was 2%). A 1 μL aliquot of the inhibitor dilution series was spotted in a polypropylene 384-well V-bottom plate (Greiner) using a Thermo Scientific Matrix PlateMate (Thermo Scientific). The 100% inhibition control consisted of 1 mM final concentration of the product inhibitor S-adenosylhomocysteine (SAH, Sigma-Aldrich). Compounds were incubated for 30 minutes with 40 μL per well of 0.031 nM EHMT2 (recombinant purified human EHMT2 913-1193, Viva) in 1× assay buffer (20 mM Bicine [pH 7.5], 0.002% Tween 20, 0.005% Bovine Skin Gelatin and 1 mM TCEP). […] 384-well Flashplates were read on a TopCount microplate reader (PerkinElmer).
(§1) IC50 curves were generated using triplicate wells per concentration of compound. […] IC50 values were calculated using a non-linear regression (variable slope-four parameter fit model) with by the following formula […]

Protein sequences, listed by entry. Tags and fused reporters are not part of them. Residues count along the entry.
UniProt Q96KQ7, 913-1193 limits assumed: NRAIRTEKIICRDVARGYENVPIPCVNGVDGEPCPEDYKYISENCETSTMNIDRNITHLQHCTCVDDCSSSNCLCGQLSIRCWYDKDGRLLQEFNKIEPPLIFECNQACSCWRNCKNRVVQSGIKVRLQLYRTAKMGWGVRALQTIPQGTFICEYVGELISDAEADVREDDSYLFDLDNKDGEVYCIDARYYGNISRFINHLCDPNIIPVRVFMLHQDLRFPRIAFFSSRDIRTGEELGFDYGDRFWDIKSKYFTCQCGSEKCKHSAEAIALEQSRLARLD
UniProt Q9H9B1, whole entry: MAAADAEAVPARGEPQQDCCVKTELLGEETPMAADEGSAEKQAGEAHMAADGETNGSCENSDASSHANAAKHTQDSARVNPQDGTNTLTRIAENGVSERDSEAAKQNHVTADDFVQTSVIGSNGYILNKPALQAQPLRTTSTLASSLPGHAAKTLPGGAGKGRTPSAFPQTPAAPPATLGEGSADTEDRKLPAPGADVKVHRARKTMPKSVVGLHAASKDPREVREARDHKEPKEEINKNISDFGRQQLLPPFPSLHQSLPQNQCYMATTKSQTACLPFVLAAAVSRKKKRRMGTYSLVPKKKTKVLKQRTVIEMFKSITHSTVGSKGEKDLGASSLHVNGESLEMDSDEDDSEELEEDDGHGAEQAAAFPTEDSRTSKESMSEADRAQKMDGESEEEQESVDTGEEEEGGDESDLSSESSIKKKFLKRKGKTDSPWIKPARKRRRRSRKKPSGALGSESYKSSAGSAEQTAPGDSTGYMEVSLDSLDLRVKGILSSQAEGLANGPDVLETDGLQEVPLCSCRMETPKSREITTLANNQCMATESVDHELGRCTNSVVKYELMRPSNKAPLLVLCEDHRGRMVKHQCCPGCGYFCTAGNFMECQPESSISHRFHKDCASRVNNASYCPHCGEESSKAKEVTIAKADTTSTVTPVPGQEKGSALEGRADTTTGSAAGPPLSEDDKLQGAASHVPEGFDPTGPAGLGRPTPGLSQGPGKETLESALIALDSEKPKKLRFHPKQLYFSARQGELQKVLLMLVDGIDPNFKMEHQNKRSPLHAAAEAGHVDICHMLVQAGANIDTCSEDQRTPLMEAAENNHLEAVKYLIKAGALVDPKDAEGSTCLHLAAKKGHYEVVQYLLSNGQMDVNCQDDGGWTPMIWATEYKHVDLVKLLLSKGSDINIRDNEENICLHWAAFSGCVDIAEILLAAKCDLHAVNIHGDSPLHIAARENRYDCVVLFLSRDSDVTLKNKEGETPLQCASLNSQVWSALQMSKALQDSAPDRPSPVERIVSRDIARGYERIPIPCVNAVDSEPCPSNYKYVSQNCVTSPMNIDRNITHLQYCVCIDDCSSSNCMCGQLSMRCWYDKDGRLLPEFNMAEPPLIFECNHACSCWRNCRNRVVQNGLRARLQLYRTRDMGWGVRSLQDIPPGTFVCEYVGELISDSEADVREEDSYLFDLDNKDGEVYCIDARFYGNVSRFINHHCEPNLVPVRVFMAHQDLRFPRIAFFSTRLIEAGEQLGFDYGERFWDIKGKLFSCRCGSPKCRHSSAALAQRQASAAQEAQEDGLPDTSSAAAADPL

[2] = test system: H3K9me2 in MDA-MB-231 cells; test: MDA-MB-231 H3K9me2 in-cell western assay; conditions: read-out: EHMT2 ICW (IC50 μM)
Excerpt: MDA-MB-231 cell line was purchased from ATCC (Manassas, Va., USA). RPMI/Glutamax medium, Penicillin-Streptomycin, Heat Inactivated Fetal Bovine Serum, and D-PBS were purchased from Life Technologies (Grand Island, N.Y., USA). Odyssey blocking buffer, 800CW goat anti-mouse IgG (H+L) antibody, and Licor Odyssey Infrared Scanner were purchased from Licor Biosciences, Lincoln, Nebr., USA. H3K9me2 mouse monoclonal antibody (Cat #1220) was purchased from Abcam (Cambridge, Mass., USA). 16% Paraformaldehyde was purchased from Electron Microscopy Sciences, Hatfield, Pa., USA). MDA-MB-231 cells were maintained in complete growth medium (RPMI supplemented with 10% v/v heat inactivated fetal bovine serum) and cultured at 37° C. under 5% CO2. UNC0638 was purchased from Sigma-Aldrich (St. Louis, Mo., USA).
General Procedure for MDA-MB-231 HEK9me2 In-Cell Western Assay.
Compound (100 nL) was added directly to 384-well cell plate. MDA-MB-231 cells (ATCC) were seeded in assay medium (RPMI/Glutamax supplemented with 10% v/v heat inactivated fetal bovine serum and 1% Penicillin/Streptomycin, Life Technologies) at a concentration of 3,000 cells per well to a Poly-D-Lysine coated 384-well cell culture plate with 50 μL per well. Plates were incubated at 37° C., 5% CO2 for 48 hours (BD Biosciences 356697). Plates were incubated at room temperature for 30 minutes and then incubated at 37° C., 5% CO2 for additional 48 hours. […] Plates were allowed to dry at room temperature then imaged on a Licor Odyssey Infrared Scanner (Licor Biosciences) which measured integrated intensity at 700 nm and 800 nm wavelengths. […]
First, the ratio for each well was determined by […]
The average of the ratio values for each well was calculated and used to determine the percent inhibition for each test well in the plate. […] Percent inhibition was calculated as: […]
as §1

EHMT1 = EHMT1 (Homo sapiens, UniProt Q9H9B1); test: EHMT1 PEP (EHMT1 peptide enzyme assay); type: biochemical; conditions: read-out: EHMT1 PEP (IC50 μM); peptide substrate enzyme assay

SMILES	IC50 [1]	IC50 [2]	IC50 (EHMT1)
CNC1=Nc2cc(-c3[nH]c4cnccc4c3F)c(OC)cc2C12CCC2	< 0.1 µM	0.1 to 1 µM	< 0.1 µM
CNc1cc(C)nc(Nc2ccc(OC)c(-c3cc4n(c3)CCN(C)C4)c2)n1	> 10 µM	> 10 µM	> 10 µM
CNc1cc(C)nc(Nc2ccc(OC)c(-c3cc4n(c3)CCNC4)c2)n1	1 to 10 µM	1 to 10 µM	1 to 10 µM
